Laboratory results published in patent publication US6638972B2, “Chroman and benzofuran derivatives as 5-hydroxytryptamine-6 ligands” (Wyeth, priority 2001, dated 2003).

The chains behind the UniProt entries cited, without tags or fusion partners.
UniProt P50406, whole entry: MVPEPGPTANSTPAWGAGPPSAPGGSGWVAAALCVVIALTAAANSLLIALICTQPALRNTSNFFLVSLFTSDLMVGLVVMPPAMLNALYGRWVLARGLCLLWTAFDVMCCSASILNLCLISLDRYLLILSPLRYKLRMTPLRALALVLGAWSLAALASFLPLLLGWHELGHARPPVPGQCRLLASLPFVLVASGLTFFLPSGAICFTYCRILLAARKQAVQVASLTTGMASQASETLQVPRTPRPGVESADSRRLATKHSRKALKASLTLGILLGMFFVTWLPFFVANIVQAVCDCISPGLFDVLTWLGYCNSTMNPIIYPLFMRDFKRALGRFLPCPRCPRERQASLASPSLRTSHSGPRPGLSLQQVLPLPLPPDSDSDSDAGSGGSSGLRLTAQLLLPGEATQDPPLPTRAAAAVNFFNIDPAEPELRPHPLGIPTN

Target: human cloned 5-HT6 receptors (Homo sapiens, UniProt P50406)
Experiment: 5-HT6 binding affinity ([3H]-LSD displacement, membranes of Hela cells expressing human cloned 5-HT6 receptors)
Conditions: read-out: 5-HT6 Binding Ki; [3H]-LSD 3.0 nM, Hela cell membranes, 120 min at room temperature; tested form: fumarate

Compound: O=S(=O)(CCNCC1CCc2ccc(OCc3ccccc3)cc2O1)Cc1ccccc1 (stereo not shown)
- Ki: 125 nM
